The nature of this series: Qualitative solubility in organic solvents.

With “SiPc[OCH2CH═C(CH3)(CH2)2CH═C(CH3)2]2 [Pc 302]”, the “solubility (in words)” value was “soluble in CH2Cl2, dimethylformamide, pyridine and toluene, and insoluble in hexanes and methanol”.

Source of the values: US20120323164A1, “PHOTODYNAMIC THERAPY WITH PHTHALOCYANINES AND RADICAL SOURCES” (Case Western Reserve University, priority 2011, published 2012).
